Measurements from patent US10167295B2 (priority 2013, dated 2019).
Where two headings read alike, the source gives them in different places.

Columns and labels:
[1] = biological target: DOR (Homo sapiens, UniProt P41143); assay: Primary binding (PDSP); settings: for DOR mean % inhibition: 10 μM, N = 4 determinations, negative = stimulation of binding; for DOR: Table 7, rounded values of Table 4
[2] = biological target: NOP (Homo sapiens, UniProt P41146); assay: Functional NOP agonism, Tango agonist assay; format: cell-based; settings: for NOP Tango Agonist: Table 7, values of Table 6; for NOP Tango Agonist, percent efficacy relative to cognate agonist: test compound at 10 micromolar
[3] = biological target: T1, KOR (Homo sapiens, UniProt P41145); assay: Primary binding (PDSP); settings: for KOR mean % inhibition: 10 μM, N = 4 determinations, negative = stimulation of binding; for KOR: Table 7, rounded values of Table 4
[4] = biological target: T1, KOR; assay: Radioligand competition binding, Ki (PDSP); settings: read-out: KOR Ki
[5] = Cheng-Prusoff from best fit IC50

SMILES	DOR mean % inhibition [1]	DOR [1]	NOP Tango Agonist [2]	NOP Tango Agonist, percent efficacy relative to cognate agonist [2] [%]	KOR mean % inhibition [3] [%]	KOR [3]	Ki [4, 5] [nM]	Ki ([4]; Table 7, values of Table 5) [nM]
CCn1c(=O)n([C@@H]2CCCC[C@H]2N2CCCC2)c2ccccc21	3.265%	3	−1.9	−1.9	–	–	–	–
CN(C(=O)C1CCCN1Cc1ccccc1)[C@H](CN1CCCCC1)c1ccccc1 (some centres unmarked)	−0.757%	−1	−3.2	−3.2	–	–	–	–
O=C(/C=C/c1ccoc1)N1CCCC[C@H]1CN1CCCC1	16.3096%	16	−2.6	−2.6	–	–	–	–
O=C(Cc1cccc2occc12)N1CCCC[C@H]1CN1CCCC1	2.785%	3	−0.2	−0.2	–	–	–	–
CN(C(=O)c1ccc(Cl)cc1)[C@@H](CN1CCCC1)c1ccccc1	4.2(AVE) %	4	1.7	1.7	–	–	–	–
CN(C(=O)Cc1cccc2occc12)[C@H]1CCCC[C@@H]1N1CCCC1	21.21%	21	−2.6	−2.6	–	–	–	–
CN(C(=O)C1CCCN1Cc1ccccc1)[C@@H](CN1CCCCC1)c1ccccc1 (some centres unmarked)	−0.4943%	0	0	0	98.2	98	98	98
CN(C(=O)Cc1ccc2occc2c1)[C@@H](CN1CCCCC1)c1ccccc1	−1.577%	−2	1.9	1.9	–	–	–	–
CN(C(=O)Cc1ccccc1)[C@H](CN1CCCCC1)c1ccccc1	5.249%	5	−1	−1	–	–	–	–
C1CCCC(CN2CCCC[C@H]2CN2CCCC2)CCC1	−3.894%	−4	−4.8	−4.8	–	–	–	–
O=C(c1ccccc1)N1CCCC[C@H]1CN1CCCC1	−2.377%	−2	−2.3	−2.3	54.3	54	1230	1230
CN1CC(C(=O)N(C)[C@@H](CN2CCCCC2)c2ccccc2)NC1=O (some centres unmarked)	20.2474%	20	−5	−5	–	–	–	–
CCn1c(=O)n([C@H]2CCCC[C@@H]2N2CCCC2)c2ccccc21	0.2677%	0	−3.9	−3.9	–	–	–	–
Cc1cccc(CC(=O)N(C)[C@@H](CN2CCCCC2)c2ccccc2)c1	−1.783%	−2	−1.9	−1.9	–	–	–	–
CN1CC(C(=O)N[C@H]2CCCC[C@@H]2N2CCCC2)CC1=O (some centres unmarked)	−10.5096%	−11	−4.9	−4.9	–	–	–	–
CN(C(=O)c1ccc(Cl)cc1)[C@H](CN1CCCCC1)c1ccccc1	−3.8126%	−4	−3.3	−3.3	–	–	–	–
CN1CC(C(=O)N(C)[C@H](CN2CCCCC2)c2ccccc2)CC1=O (some centres unmarked)	20.9079%	21	−3.5	−3.5	–	–	–	–

SMILES	DOR mean % inhibition [1]	DOR [1]	NOP Tango Agonist [2]	NOP Tango Agonist, percent efficacy relative to cognate agonist [2] [%]	KOR mean % inhibition [3] [%]	KOR [3]	Ki [4, 5] [nM]	Ki ([4]; Table 7, values of Table 5) [nM]
CN(C(=O)Cc1ccc(Cl)c(Cl)c1)[C@@H](CN1CCCCC1)c1ccccc1	12.4(AVE) %	12	0.7	0.7	–	–	–	–
CN(C(=O)Cc1cccc2occc12)[C@@H](CN1CCCC1)c1ccccc1	−1.8(AVE) %	−2	0.9	0.9	–	–	–	–
O=C(NCCCN1CCCC[C@H]1CN1CCCC1)C1CCCN1Cc1ccccc1 (some centres unmarked)	−6.974%	−7	−3	−3	–	–	–	–
CN(C(=O)Cc1cccc2occc12)[C@H](CN1CCCCC1)c1ccccc1	23.357%	23	−4.2	−4.2	–	–	–	–
O=C(C1CCCN1Cc1ccccc1)N1CCCC[C@H]1CN1CCCC1 (some centres unmarked)	−9.301%	−9	−5	−5	–	–	–	–
CN(C(=O)Cc1ccccc1)[C@H](CN1CCCC1)c1ccccc1	12.9266%	13	−3.4	−3.4	–	–	–	–
CN(C(=O)Cc1ccccc1)[C@@H](CN1CCCC1)c1ccccc1	43.8(AVE) %	44	−4.3	−4.3	–	–	–	–
CN(C(=O)Cc1ccc2occc2c1)[C@H](CN1CCCCC1)c1ccccc1	25.7477%	26	−3.3	−3.3	–	–	–	–
CN(C(=O)Cc1ccccc1)[C@@H](CN1CCCCC1)c1ccccc1	−2.394%	−2	−2.6	−2.6	–	–	–	–
CN1CC(C(=O)N2CCCC[C@H]2CN2CCCC2)CC1=O (some centres unmarked)	8.356%	8	−1.2	−1.2	–	–	–	–
CN1CC(C(=O)N(C)[C@H]2CCCC[C@@H]2N2CCCC2)CC1=O (some centres unmarked)	−16.8821%	–	−5.2	−5.2	–	–	–	–
O=C(Cc1ccc(Cl)c(Cl)c1)N1CCCC[C@H]1CN1CCCC1	26.4623%	26	−4.4	−4.4	–	–	–	–
O=C(CCN1CCC2(CCc3ccccc32)CC1)N[C@H]1CCCC[C@@H]1N1CCCC1	−8.01%	−8	−3.6	−3.6	–	–	–	–
CN(C(=O)C1CCCN1Cc1ccccc1)[C@@H](CN1CCCC1)c1ccccc1 (some centres unmarked)	2.5(AVE) %	3	−2.7	−2.7	–	–	–	–
CN(C(=O)C1CCCN1Cc1ccccc1)[C@H](CN1CCCC1)c1ccccc1 (some centres unmarked)	4.06%	4	−2.8	−2.8	–	–	–	–
CN(C(=O)Cc1cccc2occc12)[C@@H](CN1CCCCC1)c1ccccc1	−2.82%	−3	−0.2	−0.2	–	–	–	–
Cc1cccc(CC(=O)N(C)[C@H](CN2CCCC2)c2ccccc2)c1	36.7658%	37	−2.6	−2.6	–	–	–	–
